The numbers were not newly measured in patent publication US20230149373A1, “USE OF BROMODOMAIN INHIBITORS FOR TREATMENT OF HUNTINGTON'S DISEASE” (RUMI SCIENTIFIC HOLDINGS, INC., priority 2020, published 2023), which cites them from elsewhere.

The chains behind the UniProt entries cited, without tags or fusion partners.
UniProt P25440, whole entry: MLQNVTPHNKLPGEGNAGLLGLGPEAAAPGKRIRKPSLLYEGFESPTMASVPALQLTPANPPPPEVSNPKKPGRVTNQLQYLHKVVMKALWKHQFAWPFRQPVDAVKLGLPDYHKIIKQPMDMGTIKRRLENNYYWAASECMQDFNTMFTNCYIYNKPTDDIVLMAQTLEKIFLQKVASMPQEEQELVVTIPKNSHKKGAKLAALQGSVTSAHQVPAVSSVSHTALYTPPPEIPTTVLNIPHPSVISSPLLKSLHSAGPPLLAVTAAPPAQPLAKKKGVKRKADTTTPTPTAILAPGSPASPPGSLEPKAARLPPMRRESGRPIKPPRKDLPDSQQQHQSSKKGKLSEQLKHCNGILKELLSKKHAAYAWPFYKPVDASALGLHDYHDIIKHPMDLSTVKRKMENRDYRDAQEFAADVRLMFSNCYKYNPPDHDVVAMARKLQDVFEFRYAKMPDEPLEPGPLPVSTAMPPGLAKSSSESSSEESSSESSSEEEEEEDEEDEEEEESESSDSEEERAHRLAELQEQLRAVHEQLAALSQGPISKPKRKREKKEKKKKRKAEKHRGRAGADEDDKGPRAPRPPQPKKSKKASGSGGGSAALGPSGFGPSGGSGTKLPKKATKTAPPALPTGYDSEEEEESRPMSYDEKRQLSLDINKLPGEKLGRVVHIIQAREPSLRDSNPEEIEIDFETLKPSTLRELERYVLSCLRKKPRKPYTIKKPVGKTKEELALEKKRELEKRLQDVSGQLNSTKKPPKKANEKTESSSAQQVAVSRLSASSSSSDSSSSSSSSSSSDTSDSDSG

The target of the data set is BRD2 (Homo sapiens, UniProt P25440). The conditions noted are these: described in the literature; cited from earlier work.

The structures appear in SMILES notation.

One may read the IC50 as the concentration that inhibits the measured activity by half. For the compound `CCOC(=O)Nc1cc(-c2ccc(C)c(NS(C)(=O)=O)c2)nn2c(C)nnc12` [Bromosporine], the IC50 was 410 nM.
